The text below walks through data of PMC6349905 (Cell Death Discovery, 2019).

Protein sequences, listed by entry. Tags and fused reporters are not part of them.
UniProt Q60492, whole entry: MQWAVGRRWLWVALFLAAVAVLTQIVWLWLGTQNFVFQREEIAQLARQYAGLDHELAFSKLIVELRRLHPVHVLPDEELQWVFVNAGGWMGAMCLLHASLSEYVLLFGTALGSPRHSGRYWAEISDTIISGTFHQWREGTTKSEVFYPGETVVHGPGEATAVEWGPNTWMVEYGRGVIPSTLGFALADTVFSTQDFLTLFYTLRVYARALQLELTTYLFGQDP

The target in the test is T1, sigma-1 receptors (Cavia porcellus, UniProt Q60492).
T1 construct: 100 μg guinea pig brain membrane homogenates; from tissue; host or cells: guinea pig brain membrane homogenates
Description: Saturation binding of [3H](+)-pentazocine on guinea pig brain membranes.

Structures are written as SMILES.

With `CC(C)=CCN1CC[C@]2(C)c3cc(O)ccc3C[C@H]1[C@H]2C` [[^3H](+)-pentazocine], the “Bmax of [3H](+)-pentazocine” value is reported as 1242.0 ± 77.9 fmol/mg.
